{"sequences": {"note": "Sequences of proteins named here, by UniProt entry; tags and fusion partners are left off.", "UniProt P35372, whole entry": "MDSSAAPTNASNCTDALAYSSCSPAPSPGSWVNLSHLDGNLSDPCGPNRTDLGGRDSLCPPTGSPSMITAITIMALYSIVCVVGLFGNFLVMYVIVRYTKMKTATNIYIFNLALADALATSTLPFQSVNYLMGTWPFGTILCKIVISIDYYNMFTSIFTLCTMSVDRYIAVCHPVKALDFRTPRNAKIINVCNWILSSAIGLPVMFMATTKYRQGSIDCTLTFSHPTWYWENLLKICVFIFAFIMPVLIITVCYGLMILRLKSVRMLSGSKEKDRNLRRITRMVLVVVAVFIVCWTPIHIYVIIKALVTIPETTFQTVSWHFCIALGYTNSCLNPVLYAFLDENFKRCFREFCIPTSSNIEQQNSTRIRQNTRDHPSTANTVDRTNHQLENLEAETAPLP"}, "source": "ChEMBL document CHEMBL1146036", "about": "“Structural determinants of opioid activity in derivatives of 14-aminomorphinones: effect of substitution in the aromatic ring of cinnamoylaminomorphinones and codeinones” (J Med Chem, 2006)", "molecular_target": "Mu-type opioid receptor (Homo sapiens, UniProt P35372)", "type": "cell-based, CHO", "note": "pKi: −log10 of the molar value.", "data": [{"smiles": "COc1ccc2c3c1O[C@H]1C(=O)CC[C@@]4(NC(=O)/C=C/c5ccc(Cl)cc5)[C@@H](C2)N(CC2CC2)CC[C@]314", "values": [{"measurement": "pKi", "value": 8.32}]}]}
